Earlier results in patent US20260053800A1 (Veradermics, Incorporated, priority 2024, published 2026).

How the values were obtained:
[1] = test system: deoxyribonucleic acid (DNA); settings: cited from earlier work
[2] = cited from earlier work

Compound: Nc1cc(N2CCCCC2)nc(N)[n+]1[O-] [minoxidil]
- mutagenicity [1]: not mutagenic
- dose dependence of PK ([2]; healthy volunteers, 2.5 mg, 5 mg, or 10 mg oral): dose-independent PK
- absorption from the gastrointestinal tract ([2]; human, in vivo, po): > 90%
- radiolabeled drug and metabolites recovered from urine ([2]; hypertensive patients, within 24 h after oral administration): Over 80%
